Data from US12286429B2, “5-oxo-1,2,3,5,8,8a-hexahydroindolizine-3-carboxamide derivatives useful as a factor XIa inhibitors” (Janssen Pharmaceutica NV, priority 2021, dated 2025).
Where two headings read alike, the source gives them in different places.

Chains of the proteins cited; added tags and fusions are not shown. Residues count along the entry.
UniProt P03952, 391-638 limits assumed: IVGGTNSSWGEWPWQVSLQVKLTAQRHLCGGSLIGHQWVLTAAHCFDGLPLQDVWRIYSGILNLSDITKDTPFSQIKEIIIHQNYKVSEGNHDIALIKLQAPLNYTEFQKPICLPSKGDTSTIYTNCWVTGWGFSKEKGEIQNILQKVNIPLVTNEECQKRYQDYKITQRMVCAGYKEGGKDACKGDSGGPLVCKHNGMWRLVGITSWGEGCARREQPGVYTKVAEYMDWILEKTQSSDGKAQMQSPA
UniProt P03952, 20-390 partner limits assumed: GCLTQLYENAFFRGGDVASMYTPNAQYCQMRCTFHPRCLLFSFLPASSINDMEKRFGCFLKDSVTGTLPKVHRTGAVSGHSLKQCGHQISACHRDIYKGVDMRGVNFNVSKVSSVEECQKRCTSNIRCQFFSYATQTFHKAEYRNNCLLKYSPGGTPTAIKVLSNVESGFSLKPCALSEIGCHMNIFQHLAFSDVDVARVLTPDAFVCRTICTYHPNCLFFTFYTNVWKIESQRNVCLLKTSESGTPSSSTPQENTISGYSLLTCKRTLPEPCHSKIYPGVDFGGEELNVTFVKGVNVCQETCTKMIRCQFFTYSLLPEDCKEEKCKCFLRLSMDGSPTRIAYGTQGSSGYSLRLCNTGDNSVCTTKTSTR
UniProt P03951, 388-625 limits assumed: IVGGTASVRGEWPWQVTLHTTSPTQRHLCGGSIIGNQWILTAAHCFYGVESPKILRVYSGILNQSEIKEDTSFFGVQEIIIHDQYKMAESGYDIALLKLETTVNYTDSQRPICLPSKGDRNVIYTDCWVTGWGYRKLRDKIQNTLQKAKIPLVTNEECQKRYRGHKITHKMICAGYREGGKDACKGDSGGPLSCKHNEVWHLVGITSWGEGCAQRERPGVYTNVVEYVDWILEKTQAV
UniProt P03951, 19-387 partner limits assumed: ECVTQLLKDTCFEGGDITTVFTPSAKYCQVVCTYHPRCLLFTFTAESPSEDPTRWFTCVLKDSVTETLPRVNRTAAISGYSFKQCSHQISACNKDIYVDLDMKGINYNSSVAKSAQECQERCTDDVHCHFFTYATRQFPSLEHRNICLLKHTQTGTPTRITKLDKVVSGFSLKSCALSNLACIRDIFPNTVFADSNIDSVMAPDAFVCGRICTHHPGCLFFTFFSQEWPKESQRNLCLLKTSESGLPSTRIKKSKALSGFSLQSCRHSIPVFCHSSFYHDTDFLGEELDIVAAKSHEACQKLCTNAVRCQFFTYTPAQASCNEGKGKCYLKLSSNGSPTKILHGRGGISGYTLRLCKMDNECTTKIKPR

What was measured:
human plasma kallikrein = human plasma kallikrein (Homo sapiens, UniProt P03952); test: Kallikrein inhibition assay utilizing a quenched AMC peptide substrate (FLINT)
Procedure: Biological Example 2: Kallikrein Inhibition Assay Utilizing a Quenched AMC Peptide Substrate
A fluorescence intensity (FLINT) based assay was used to monitor inhibition of human plasma kallikrein. The peptide substrate, Z-Gly-Pro-Arg-AMC (Purchased from Bachem; Catalog #I-1150) was chosen based on its relatively low KM for kallikrein which enables running the assay at lower substrate concentrations to control background fluorescence. The kinetic parameters for this substrate were determined by fitting titration data to the Michaelis-Menten equation yielding a KM=40 μM, kcat=0.76 s^−1, and kcat/KM=18932 M^−1s^−1.
The Kallikrein FLINT assay was used with the following Z-Gly-Pro-Arg-AMC assay buffer: 50 mM Tris, pH 7.5, 100 mM NaCl, 5 mM CaCl2, 0.1 mg/mL BSA, 0.03% CHAPS. Assay buffer was prepared by mixing all ingredients fresh. 2× Z-Gly-Pro-Arg-AMC peptide substrate was prepared by diluting 10 mM stock into 1× assay buffer for a 100 μM working concentration (50 μM final concentration). The 2× kallikrein stock solution was prepared by diluting 14.76 μM stock in 1× assay buffer for a 4 nM working stock solution (2 nM final concentration).
Test compound(s) were run in an 11-point, 3-fold serial dilution with a final top compound concentration of 1 μM. Final DMSO in assay was 2%. Plasma kallikrein was pre-incubated for 30-minute with compound and then 50 μM substrate was added to initiate the reaction. The assay was run with kinetic (KIN) reads at 5 min intervals over 30 minutes. The time course was linear using 2 nM kallikrein greater than 30 minutes. More specifically, the assay was run as follows: • 100 nL of 0.1 mM test compound was dispensed into black 384-well non-binding Greiner BioOne 784900 plate for 1 μM final concentration; • 5 μL of 1× assay buffer was dispensed to columns 24 (low control) and 5 μL 2× human kallikrein enzyme solution was dispensed to columns 1-23 (column 23 high control); • the plate was centrifuged with a “cover” plate at 500 rpm for 1 min • the plate was pre-incubated for 30 minutes at room temperature with plate covered; • 5 μL of 2× Z-Gly-Pro-Arg-AMC peptide substrate was dispensed into the entire plate, columns 1-24; • the plate was centrifuged with a “cover” plate at 500 rpm for 1 min; • the plate was read monitoring fluorescence intensity on the BMG PHERAStar at room temperature, using fluorescence module 340 nm/440 nm.
(§1) Percent inhibition (IC50) curves were generated per compound tested, and data was analyzed using a 4-parameter logistic fit using GeneData Screener. The relative fluorescence unit (RFU) values were normalized to percent inhibition using the following equation: % inhibition=((HC−LC)−(compound−LC)/(HC−LC))*100
where LC—low control=mean signal of […] 100% inhibition of human kallikrein enzyme; HC—high control=mean signal of […]+Z-Gly-Pro-Arg-AMC peptide substrate with DMSO only.
(§2) An 11-point dose response curve for the test compound(s) was generated using GENDATA to determine IC50 value based on the following equation: Y=Bottom+(Top−Bottom)/(1+10^((log IC50−X)*HillSlope))
(§3) where Y is the % inhibition in the presence of X inhibitor concentration, Top=high control=mean signal of human kallikrein enzyme+Z-Gly-Pro-Arg-AMC peptide substrate with DMSO only; Bottom=low control—mean signal of no human kallikrein enzyme or 100% inhibition of human kallikrein enzyme; HillSlope—Hill coefficient; and IC50=concentration of compound with 50% inhibition in relation to top/high control.

Factor XIa = Factor XIa (Homo sapiens, UniProt P03951); test: Factor XIa inhibition assay utilizing a fluorophore-quencher pair peptide substrate (FLINT); settings: read-out: FXIa Inhibition IC50; 11-point, 3-fold serial dilution, top 100 nM; 30 min preincubation; 15 μM 5Fam-KLTRAETV-K5Tamra substrate; kinetic reads over 30 min
From the text: Biological Example 1: Factor XIa Inhibition Assay Utilizing a Fluorophore-Quencher Pair Peptide Substrate
A fluorescence intensity (FLINT) based assay was used to monitor inhibition of Factor XIa. The peptide substrate, 5Fam-KLTRAETV-K5Tamra (purchased from New England Peptide) was chosen based on the FXI sequence. Conversion of zymogen FXI to its activated form, FXIa, occurs by proteolytic cleavage by […] at two sites, Arg146 and Arg180. The custom peptide used in this assay was based on the Arg146 cleavage site of FXI. The peptide substrate was designed with a fluorophore-quencher pair, where the fluorescence is quenched until FXIa cleaves the 8-mer peptide after the Arg residue. The substrate KM was fit to a substrate inhibition model whereby kcat=0.86 s^−1, KM=12.4 μM, Ki=61.6 μM with an enzymatic efficiency, and kcat/KM=69523 M^−1s^−1.
The Factor XIa FLINT assay was used with the following 5Fam-KLTRAETV-K5Tamra assay buffer: 50 mM Tris, pH 7.5, 100 mM NaCl, 5 mM CaCl2, 0.1 mg/mL BSA, 0.03% CHAPS. Assay buffer was prepared by mixing all ingredients fresh. 5Fam-KLTRAETV-K5Tamra peptide substrate was first prepared at 10 mM in 100% DMSO, then diluted to 3 mM in 100% DMSO. Assay buffer was then added directly to the 3 mM stock of substrate to prepare the 30 μM 2× working concentration (15 μM final concentration). The 2× Factor XIa stock solution was prepared by diluting 6.562 μM stock in 1× assay buffer for a […].
Test compound(s) were run in an 11-point, 3-fold serial dilution with a final top compound concentration of 100 nM. Final DMSO in assay was 2%. FXIa was preincubated with compound for 30-minutes and then substrate was added to initiate the reaction. The assay was run with kinetic (KIN) reads at 5 min intervals over 30 minutes. […] More specifically, the assay was run as follows: • 100 nL of 0.01 mM test compound was dispensed into black 384-well non-binding Greiner BioOne 784900 plate for 0.1 μM final concentration, • 5 μL of 1× assay buffer was dispensed to column 24 (low control) and 5 μL 2× Factor XIa solution was dispensed to columns 1-23 (column 23 high control); • the plate was centrifuged with a “cover” plate at 500 rpm for 1 min • the plate was pre-incubated for 30 minutes at room temperature with plate covered; • 5 μL of 2×5Fam-KLTRAETV-K5Tamra peptide substrate was dispensed into the entire plate, columns 1-24; • the plate was centrifuged with a “cover” plate at 500 rpm for 1 min; • the plate was read monitoring fluorescence intensity on the BMG PHERAStar at room temperature, using fluorescence module 485 nm/520 nm.
as §1
where LC—low control=mean signal of no Factor XIa or 100% inhibition of Factor XIa; HC—high control=mean signal of Factor XIa+5Fam-KLTRAETV-K5Tamra peptide substrate with DMSO only.
as §2
as §3, with “Factor XIa+5Fam-KLTRAETV-K5Tamra” for “human kallikrein enzyme+Z-Gly-Pro-Arg-AMC”, “Factor XIa” for “human kallikrein enzyme”, “Factor XIa;” for “human kallikrein enzyme;”

[1] = read-out: Plasma Kallikrein IC50, 11-point, 3-fold serial dilution, top 1 μM, 30 min preincubation, 2 nM kallikrein, 50 μM Z-Gly-Pro-Arg-AMC, kinetic reads over 30 min

| Compound | IC50 (human plasma kallikrein; [1]) | IC50 (Factor XIa) | IC50 (human plasma kallikrein; read-out: Plasma Kallikrein IC50 (μM), same assay as E2, unit μM printed in the cell under a head that says nM) |
| --- | --- | --- | --- |
| O=C(Nc1ccc(-c2ncon2)cc1)[C@@H]1CC[C@@H]2CC(c3c(-n4cnnn4)ccc(Cl)c3F)=CC(=O)N21 | 0.123 µM | 23.4 nM |  |
| O=C(O)c1cccc(NC(=O)[C@@H]2CC[C@@H]3CC(c4c(-n5cc(C(F)(F)F)nn5)ccc(Cl)c4F)=CC(=O)N32)c1F |  | > 50 nM | > 1 µM |
| NC(=O)c1ccc(NC(=O)[C@@H]2CC[C@H]3CC(c4c(-n5cc(C(F)(F)F)nn5)ccc(Cl)c4F)=CC(=O)N32)cc1F | 0.626 µM | > 50 nM |  |
| O=C(NC1CC1)c1ccc(NC(=O)[C@@H]2CC[C@@H]3CC(c4c(-n5cnnn5)ccc(Cl)c4F)=CC(=O)N32)cc1 | 0.677 µM | > 50 nM |  |
| NC(=NO)c1ccc(NC(=O)[C@@H]2CC[C@@H]3CC(c4c(-n5cnnn5)ccc(Cl)c4F)=CC(=O)N32)cc1 | 0.606 µM | 26.1 nM |  |
| NC(=O)c1ccc(NC(=O)[C@@H]2CC[C@H]3CC(c4cc(Cl)ccc4-n4cc(C(F)(F)F)nn4)=CC(=O)N32)cc1F | 0.946 µM | > 50 nM |  |
| O=C(Nc1ccc(-c2noc(C(F)F)n2)cc1)[C@@H]1CC[C@@H]2CC(c3c(-n4cnnn4)ccc(Cl)c3F)=CC(=O)N21 | 0.348 µM | > 50 nM |  |
